Reference: patent US4767764A, “Alkoxyalkyl and alkylmercaptoalkyl substituted bridged benzofuroisoquinolines having opioid antagonist and/or appetite-controlling properties” (E. I. Du Pont de Nemours and Company, priority 1986, dated 1988)

Chains of the proteins cited; added tags and fusions are not shown.
UniProt P33534, whole entry: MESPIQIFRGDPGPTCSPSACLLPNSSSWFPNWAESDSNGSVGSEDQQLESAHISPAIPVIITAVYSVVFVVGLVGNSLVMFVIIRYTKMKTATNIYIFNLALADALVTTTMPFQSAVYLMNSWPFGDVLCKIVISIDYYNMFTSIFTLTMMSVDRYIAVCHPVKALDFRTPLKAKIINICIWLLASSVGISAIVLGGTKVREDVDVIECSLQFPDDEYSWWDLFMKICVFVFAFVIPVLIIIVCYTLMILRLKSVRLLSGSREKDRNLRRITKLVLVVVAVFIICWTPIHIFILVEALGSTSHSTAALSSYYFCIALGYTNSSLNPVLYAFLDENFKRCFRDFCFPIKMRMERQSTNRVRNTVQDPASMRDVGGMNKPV
UniProt P42866, whole entry: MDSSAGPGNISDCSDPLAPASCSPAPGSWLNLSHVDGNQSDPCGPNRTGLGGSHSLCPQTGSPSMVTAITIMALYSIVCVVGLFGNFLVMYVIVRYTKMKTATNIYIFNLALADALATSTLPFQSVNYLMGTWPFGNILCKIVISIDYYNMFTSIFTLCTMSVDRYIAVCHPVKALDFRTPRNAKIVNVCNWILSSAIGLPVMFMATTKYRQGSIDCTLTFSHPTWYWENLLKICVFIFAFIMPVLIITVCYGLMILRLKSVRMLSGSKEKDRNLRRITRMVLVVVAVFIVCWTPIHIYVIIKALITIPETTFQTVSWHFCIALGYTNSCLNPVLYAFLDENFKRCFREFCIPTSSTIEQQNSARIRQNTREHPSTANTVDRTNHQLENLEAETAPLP

Assays:
[1] = target: kappa opioid receptor (U-50,488H analgesia) (Mus musculus, UniProt P33534); assay: antagonism of U-50,488H analgesia in PQW test (kappa antagonist potency); type: in vivo, mouse (male CF1); settings: ratio of ED50 morphine / ED50 U-50,488H antagonism
[2] = target: mu receptor (Mus musculus, UniProt P42866); settings: in vivo, sc

| Structure (SMILES) | kappa selectivity (morphine/U-50,488H antagonism) [1] | ED50 [2] |
| --- | --- | --- |
| CCCOCC1CC2CCC13CN(CCC)CCC31c3cccc(O)c3OC21 (stereo not shown) [Example 3, 5-(n-Propoxymethyl)-3-n-propyl-1,2,3,4,5,6,7,7a-octahydro-4a,7-ethanobenzofuro[3,2-e]isoquinolin-9-ol] | 2.4 X | 0.06 mg/kg |
| CCCN1CCC23c4cccc(O)c4OC2C2CCC3(C1)C(COCC)C2 (stereo not shown) [Example 2, 5-Ethoxymethyl-3-n-propyl-1,2,3,4,5,6,7,7a-octahydro-4a,7-ethanobenzofuro[3,2-e]isoquinolin-9-ol] | 2.0 X | 0.02 mg/kg |
| CCCOCC1CC2C=CC13CN(CCC)CCC31c3cccc(O)c3OC21 (stereo not shown) [Example 4, 5-(n-propoxymethyl)-3-n-propyl-1,2,3,4,5,6,7,7a-octahydro-4a,7-ethenobenzofuro[3,2-e]isoquinolin-9-ol] | 3.8 X | 0.15 mg/kg |
| CCCN1CCC23c4cccc(O)c4OC2C2CCC3(C1)C(COC)C2 (stereo not shown) [Example 1, 5-Methoxymethyl-3-n-propyl-1,2,3,4,5,6,7,7a-octahydro-4a,7-ethanobenzofuro[3,2-e]isoquinolin-9-ol] | 3.5 X | 0.01 mg/kg |
| CCCN1CCC23c4cccc(O)c4OC2C2CCC3(C1)C(CSC)C2 (stereo not shown) [Example 5, 5-methylthiomethyl-3-n-propyl-1,2,3,4,5,6,7,7a-octahydro-4a,7-ethanobenzofuro[3,2-e]isoquinolin-9-ol] | 1.6 X | 0.04 mg/kg |
